Data from ChEMBL document CHEMBL1269000, “Synthesis and biological evaluation of [D-lysine]8cyclosporin A analogs as potential anti-HCV agents” (Bioorg Med Chem Lett, 2010).

Chains of the proteins cited; added tags and fusions are not shown.
UniProt P62937, whole entry: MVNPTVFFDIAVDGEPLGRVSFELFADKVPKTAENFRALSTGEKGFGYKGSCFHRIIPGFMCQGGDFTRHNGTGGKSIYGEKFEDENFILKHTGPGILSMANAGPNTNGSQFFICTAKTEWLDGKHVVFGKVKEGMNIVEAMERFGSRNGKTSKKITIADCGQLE

Molecular target: Peptidyl-prolyl cis-trans isomerase A (Homo sapiens, UniProt P62937)
Experiment: Binding affinity to cyclophilin A by ELISA

IC50: 9.48 nM
Structure (SMILES): C/C=C/C[C@@H](C)[C@@H](O)[C@H]1C(=O)N[C@@H](CC)C(=O)N(C)[C@H](SCCN(C)C)C(=O)N(C)[C@@H](CC(C)(C)O)C(=O)N[C@@H](C(C)C)C(=O)N(C)[C@@H](CC(C)C)C(=O)N[C@@H](C)C(=O)N[C@H](C)C(=O)N(C)[C@@H](CC(C)C)C(=O)N(C)[C@@H](CC(C)C)C(=O)N(C)[C@@H](C(C)C)C(=O)N1C [SCY 635]
